The assay deals with proton pump (H+/K+-ATPase) (Sus scrofa, UniProt P19156). The assay is described as follows: Measurement of inhibitory effects on proton pump (H+/K+-ATPase) activities. To be noted: hog gastric vesicles, K+-specific H+/K+-ATPase activity, Tris-HCl buffer pH 7.4, 37° C. for 40 minutes, malachite green Pi readout. How it is done:
1) Preparation of Gastric Vesicles
Gastric vesicles were prepared from hog stomach via centrifugal separation (Edd C. Rabon et al., Preparation of Gastric H^+,K^+-ATPase, Methods in enzymology, vol. 157 Academic Press Inc., (1988), pp. 649-654). The protein contents of the thus prepared gastric vesicles were quantitated by Bicinchoninic Acid (BCA) kit.
2) Measurement of Inhibitory Effects on Proton Pump (H^+/K^+-ATPase) Activities
The inhibitory effects of the compounds of the present invention against proton pump activities were measured using a 96-well plate. In this assay, the K^+-specific H^+/K^+-ATPase activities were calculated based on the difference between the H^+/K^+-ATPase activity in the presence of K^+ and that in the absence of K. In the 96-well plate, 0.5% dimethyl sulfoxide (DMSO) in buffer was added to the negative and positive control groups, and the diluted compounds of the present invention were added to the test groups. […] The amount of monophosphate (Pi) in the reaction was measured at 570 nm using a micro plate reader (FLUOstar Omega, BMG LABTECH). The inhibition rates (%) were determined from the activity values of control groups and those of test compounds at various concentrations, and the […] of the test compounds were calculated based on the respective inhibition value (%) using the Logistic 4-parameter function of Sigmaplot 8.0 program.

The chains behind the UniProt entries cited, without tags or fusion partners.
UniProt P19156, whole entry: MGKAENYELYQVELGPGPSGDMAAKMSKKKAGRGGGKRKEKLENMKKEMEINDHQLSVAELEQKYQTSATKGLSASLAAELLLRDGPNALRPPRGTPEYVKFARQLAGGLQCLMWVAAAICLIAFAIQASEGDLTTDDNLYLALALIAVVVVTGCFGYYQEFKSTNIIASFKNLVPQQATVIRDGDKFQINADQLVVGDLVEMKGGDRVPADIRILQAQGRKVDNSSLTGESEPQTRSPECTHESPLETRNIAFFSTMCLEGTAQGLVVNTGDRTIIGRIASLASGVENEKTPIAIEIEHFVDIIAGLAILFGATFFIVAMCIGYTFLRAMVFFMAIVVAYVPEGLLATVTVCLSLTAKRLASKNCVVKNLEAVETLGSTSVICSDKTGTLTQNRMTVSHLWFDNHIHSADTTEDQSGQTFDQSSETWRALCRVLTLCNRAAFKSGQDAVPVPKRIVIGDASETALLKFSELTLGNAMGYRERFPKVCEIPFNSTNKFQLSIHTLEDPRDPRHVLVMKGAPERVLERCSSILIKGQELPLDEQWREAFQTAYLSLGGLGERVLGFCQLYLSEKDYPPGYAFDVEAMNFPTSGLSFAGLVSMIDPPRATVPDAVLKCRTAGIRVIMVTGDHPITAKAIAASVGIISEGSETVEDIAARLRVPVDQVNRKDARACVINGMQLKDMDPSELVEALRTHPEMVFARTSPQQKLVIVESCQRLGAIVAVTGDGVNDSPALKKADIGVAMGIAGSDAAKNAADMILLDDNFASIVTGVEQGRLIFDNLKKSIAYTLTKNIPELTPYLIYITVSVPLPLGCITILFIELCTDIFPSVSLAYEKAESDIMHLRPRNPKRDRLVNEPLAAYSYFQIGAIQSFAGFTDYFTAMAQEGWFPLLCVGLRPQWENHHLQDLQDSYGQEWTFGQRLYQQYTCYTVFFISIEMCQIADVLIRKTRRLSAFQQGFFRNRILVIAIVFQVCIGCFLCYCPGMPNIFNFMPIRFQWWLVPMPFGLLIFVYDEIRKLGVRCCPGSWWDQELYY
UniProt P18434, whole entry partner: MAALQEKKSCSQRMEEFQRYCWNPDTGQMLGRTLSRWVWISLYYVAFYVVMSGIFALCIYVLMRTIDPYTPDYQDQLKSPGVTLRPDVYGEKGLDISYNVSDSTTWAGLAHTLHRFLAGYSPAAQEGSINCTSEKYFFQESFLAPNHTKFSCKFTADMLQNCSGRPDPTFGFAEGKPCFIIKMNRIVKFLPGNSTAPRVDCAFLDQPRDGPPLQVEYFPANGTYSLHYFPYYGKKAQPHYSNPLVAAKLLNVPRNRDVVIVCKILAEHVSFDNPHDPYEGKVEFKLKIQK

The compound `CNCc1cn(S(=O)(=O)c2cccnc2)c2cc(Oc3cc(Cl)ccc3[N+](=O)[O-])ccc12` came in with an IC50 (tested form: hydrochloride (drawing prints 2HCl)) of 2130 nM.
In the case of `CNc1cn(S(=O)(=O)c2cccnc2)c2cc(Nc3ccc(C)cc3Cl)ccc12`, the IC50 (tested form: hydrochloride (drawing prints 3HCl)) stood at 1470 nM.

As a reminder, the IC50 is the concentration needed to halve the response being measured. The low end stands for higher potency, the high end for lower potency.

These data come from patent US9676714B2, “Sulfonylindole derivatives and method for preparing the same” (Daewoong Pharmaceutical Co., Ltd., priority 2013, dated 2017).
